B1: Patient 7 clone (TCR)
alpha TRAV5 CDR3: AENPEGNDMR
beta TRBV11.2 CDR3: ASSPGGGGEQF
B2: Patient 5 clone (TCR)
alpha TRAV8.1 CDR3: AVNGDDKII
beta TRBV7.6 CDR3: ASSLGGGQDTQY
B3: Patient 2 clone (TCR)
alpha TRAV12.1 CDR3: VVNMNSNYQLI
beta TRBV15 CDR3: ATSQEASFTDTQY

Molecular target: T1, gp100 peptide on HLA-A*02:01 (human)
T1 peptide: KTWGQYWQV
Test: cytokine release

Binding result, recognises:
B1
B2
B3

Source: paper PMC2577625 (2008)
